{
  "source": "patent EP4748842A1",
  "about": "“CAMPTOTHECIN COMPOUND, ANTIBODY DRUG CONJUGATE, AND PREPARATION METHOD THEREFOR AND USE THEREOF” (Shanghai Pharmaceuticals Holding Co., Ltd., priority 2023, dated 2025)",
  "key": {"NCI-N87": {"tested_on": "NCI-N87", "assay": "Bystander effect, NCI-N87/MDA-MB-231 co-culture, flow cytometry (positive cells)", "assay_type": "cell-based, human", "conditions": "seeding ratio NCI-N87:MDA-MB-231 5:1, co-culture 7 days, proportion in total particles", "description": "(§1) In this experiment, II-2 and T-Dxd were co-cultured with NCI-N87/MDA-MB-231 cells for 7 days, and flow cytometry was used to detect the proportion of NCI-N87 or MDA-MB-231 cells in the total particles, which reflects the ability of ADC to kill negative cells via the bystander effect.\n(§2) NCI-N87 cells were cultured in one T175 flask, digested, resuspended in 8 mL for cell counting, centrifuged to remove the supernatant, and the cell density was adjusted. MDA-MB-231 (ATCC, HTB-26) cells were cultured in one T175 flask, digested, resuspended in 6 mL for cell counting, centrifuged to remove the supernatant, and the cell density was adjusted. Cell counting was performed with a cell counter: 20 µL of the cell suspension was aspirated, mixed with 20 µL of VisStain AOPI Staining Solution, and 20 µL of the mixture was taken for cell counting. The cells were seeded into 96-well cell culture plates (flat-bottomed) with RPMI1640 medium/10%FBS respectively, and 90 µL of each cell was added to each well, i.e., the cell ratio was 10000 cells/well of NCI-N87 + 2000 cells/well of MDA-MB-231 (5:1). The plate was tapped gently to mix, and then placed in a 37°C 5% CO2 cell incubator for incubation for 16 hours. […]"}, "MDA-MB-231": {"tested_on": "MDA-MB-231", "assay": "Bystander effect, NCI-N87/MDA-MB-231 co-culture, flow cytometry (negative cells)", "assay_type": "cell-based", "conditions": "seeding ratio NCI-N87:MDA-MB-231 5:1, co-culture 7 days, proportion in total particles", "description": "as §1, §2"}},
  "data": [
    {"substance": "T-Dxd", "values": [
      {"measurement": "Percentage of positive and negative cells (%) NCI-N87", "setting": "NCI-N87", "result": 9.79, "unit": "%"},
      {"measurement": "Percentage of positive and negative cells (%) MDA-MB-231", "setting": "MDA-MB-231", "result": 4.74, "unit": "%"}
    ]}
  ]
}
